For 32 compounds, activation, Potency and activity change results are on record in PubChem BioAssay (Tox21).

Chains of the proteins cited; added tags and fusions are not shown. Lines headed by an entry give the natural chain unless they say otherwise; changes in a name come on top.
UniProt Q92731, whole entry, looked up: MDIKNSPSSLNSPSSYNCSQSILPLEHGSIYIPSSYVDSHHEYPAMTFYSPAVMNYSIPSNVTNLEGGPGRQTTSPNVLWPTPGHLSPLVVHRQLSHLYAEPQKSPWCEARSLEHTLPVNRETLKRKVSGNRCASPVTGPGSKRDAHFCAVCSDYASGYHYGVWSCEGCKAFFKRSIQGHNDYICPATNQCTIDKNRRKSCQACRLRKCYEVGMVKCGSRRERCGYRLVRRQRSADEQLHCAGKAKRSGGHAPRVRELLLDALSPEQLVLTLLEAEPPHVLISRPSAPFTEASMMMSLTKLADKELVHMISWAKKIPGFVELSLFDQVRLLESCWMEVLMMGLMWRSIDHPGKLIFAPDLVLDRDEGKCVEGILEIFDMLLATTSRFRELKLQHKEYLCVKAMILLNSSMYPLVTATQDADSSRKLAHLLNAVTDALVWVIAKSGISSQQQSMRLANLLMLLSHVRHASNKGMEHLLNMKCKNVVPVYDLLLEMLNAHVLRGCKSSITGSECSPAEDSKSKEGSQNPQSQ
UniProt P10275: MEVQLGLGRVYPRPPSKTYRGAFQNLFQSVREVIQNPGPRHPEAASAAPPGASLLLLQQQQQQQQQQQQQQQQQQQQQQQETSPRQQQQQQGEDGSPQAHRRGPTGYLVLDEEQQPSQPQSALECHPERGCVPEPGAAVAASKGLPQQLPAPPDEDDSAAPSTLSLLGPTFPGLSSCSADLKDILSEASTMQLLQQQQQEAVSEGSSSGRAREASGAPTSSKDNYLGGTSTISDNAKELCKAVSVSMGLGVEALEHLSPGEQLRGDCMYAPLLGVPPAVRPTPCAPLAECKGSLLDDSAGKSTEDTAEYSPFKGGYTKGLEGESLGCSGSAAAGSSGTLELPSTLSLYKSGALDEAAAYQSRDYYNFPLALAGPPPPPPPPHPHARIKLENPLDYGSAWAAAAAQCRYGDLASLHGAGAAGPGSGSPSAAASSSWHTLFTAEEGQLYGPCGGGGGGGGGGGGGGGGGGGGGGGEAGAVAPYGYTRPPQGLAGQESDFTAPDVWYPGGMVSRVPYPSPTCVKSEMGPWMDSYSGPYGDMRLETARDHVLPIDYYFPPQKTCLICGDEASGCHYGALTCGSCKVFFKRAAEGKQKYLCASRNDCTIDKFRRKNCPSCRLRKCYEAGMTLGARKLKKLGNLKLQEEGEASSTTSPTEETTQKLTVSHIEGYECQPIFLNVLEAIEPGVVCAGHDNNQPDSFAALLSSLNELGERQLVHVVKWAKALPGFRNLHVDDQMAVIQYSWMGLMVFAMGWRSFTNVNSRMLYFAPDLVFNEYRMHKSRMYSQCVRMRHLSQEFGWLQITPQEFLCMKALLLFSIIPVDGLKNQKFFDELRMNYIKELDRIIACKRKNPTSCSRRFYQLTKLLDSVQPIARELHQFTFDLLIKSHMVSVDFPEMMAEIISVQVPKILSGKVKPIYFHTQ

“And” between values parts separate entries of the source, which are not always exact repeats. Equal entries are not always repeated. For some assays here: What follows is the remainder of the data, with few or none of the hits. This is a selection; strong and weak results do not stand in their true shares. Inconclusive results are not listed. Where a structure was tested more than once in an assay, its records may differ in their call. The source made the active and inactive calls. Unless noted, the call rests on the fitted dose curve; in most records, active means well fitted curve in the direction sought with a large enough effect in the repeat runs; inconclusive means weak or mixed curves; inactive means no such curve, though single readings can be large; an effect the other way counts as inactive or inconclusive.

Test [1] can be described thus: qHTS assay to identify small molecule agonists of the NFkB signaling pathway (AID 1159509; active means well fitted curve in the direction sought with a large enough effect in the signal ratio in the repeat runs, not every such curve was filed as active; the % refers to the signal ratio). The conditions noted are these: NFkB-bla ME-180 cells, beta-lactamase FRET ratio, 5 h. The essentials: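 Readout: FRET fluorescence, 405 nm excitation, 460/530 nm emission; beta-lactamase expression disrupts FRET. Cells: ME-180 stably carrying NF-kB-driven bla reporter. Compound exposure 5 hr, 37 C, 5% CO2.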

The nature of test [2]: qHTS assay to identify small molecule antagonists of the retinoic acid receptor (RAR) signaling pathway (AID 1159552; further: nearly all actives have a fitted effect of over 50% in size; further: potency means the concentration at half of the fitted maximal effect). The essentials:
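Luminescent RARE reporter read-out in C3RL4 cells: 6 hr co-treatment at 37 C of test compounds with retinol at 1 uM final. Cells plated overnight beforehand; luciferase reagent incubated 30 min at room temperature before reading.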
A general note: Quantitative high-throughput screening tests each substance at several concentrations.

For test [3], the target named is Estrogen receptor beta (Homo sapiens) (UniProt Q92731). Briefly: qHTS assay to identify small molecule antagonists of the estrogen receptor beta (ER-beta) signaling pathway (AID 1259378; active means well fitted inhibition curve with a large enough effect in the signal ratio in the repeat runs, not every such curve was filed as active; the % refers to the signal ratio; further: potency means the concentration at half of the fitted maximal effect). The method, boiled down:
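ER-beta-UAS-bla HEK293T (GripTite) cells in 2% charcoal-stripped FBS medium were preincubated 6 hr at 37C, dosed with compound, then stimulated with 1 nM E2 (final) for 16 hr; beta-lactamase reporter read by B/G FRET fluorescence after 2 hr substrate loading.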

The target of test [4] is Androgen receptor (Homo sapiens) (UniProt P10275). Briefly: qHTS assay to identify small molecule antagonists of the androgen receptor (AR) signaling pathway (AID 743035; active means well fitted inhibition curve with a large enough effect in the signal ratio in the repeat runs, not every such curve was filed as active; the % refers to the signal ratio).
For test [5] the target is unchanged. In words: qHTS assay to identify small molecule agonists of the androgen receptor (AR) signaling pathway using the MDA cell line (AID 743040; further: nearly all actives have a fitted effect of over 20% in size). The conditions noted are these: MDA-kb2 AR-luc cells, MMTV luciferase, 16 h, stronger effect = higher value.
For test [6] the target is unchanged. In words: qHTS assay to identify small molecule antagonists of the androgen receptor (AR) signaling pathway using the MDA cell line (AID 743042; further: nearly all actives have a fitted effect of over 55% in size).
Test [7] shares this target. In words: qHTS assay to identify small molecule antagonists of the androgen receptor (AR) signaling pathway using the MDA cell line in the presence of 0.5 nM R1881 (AID 1259243). Further: nearly all actives have a fitted effect of over 50% in size. Further: potency means the concentration at half of the fitted maximal effect.
For test [8] the target is unchanged. Briefly: qHTS assay to identify small molecule agonists of the androgen receptor (AR) signaling pathway in the presence of an antagonist (AID 1259381; calls by dose curve; further: nearly all actives have a fitted effect of over 15% in size).
The mark [9] stands for this setting: at 61 µM (top of the series) unless noted.
On the % scale 0 is the no-effect control and ±100 the full control effect.

For the compound `Cc1ccc(C(=O)c2ccc(CC(=O)O)n2C)cc1`, the activation in test [1] (setting [9]) is inactive: 0.0663%. Also, the Potency entry in test [2] and in test [3] was “inactive” each time.
`[O]=[Zr]`: in test [1] (setting [9]), the activation is inactive: 0.538%. Also, the Potency entry in test [2] was “inactive”.
As for `C[N+]1(C)CCCC(OC(=O)C(O)(c2ccccc2)c2ccccc2)C1` (stereo unspecified), the activation in test [1] (setting [9]) was inactive: 0.0018%. The Potency result in test [2] and in test [3] was “inactive” each time.
For the compound `CNC(=O)c1cc(Oc2ccc(NC(=O)Nc3ccc(Cl)c(C(F)(F)F)c3)cc2)ccn1`, the activation in test [1] (setting [9]) was inactive: 0.153%.
In the case of `C[N+](C)(CCOc1ccccc1)Cc1cccs1`, the activation in test [1] (setting [9]) is inactive: -0.37%.
`C[N+]1(CC2COC(c3ccccc3)(c3ccccc3)O2)CCCCC1` (stereo unspecified): the activation in test [1] (setting [9]) was inactive: -0.381% [at 28.5 µM]. The Potency result in test [2] is “inactive”.
Regarding `CC(C)(C)NCC(O)c1cc(O)cc(O)c1` (stereo unspecified), in test [1] (setting [9]), the activation was inactive: -0.871%.
For `C[C@](N)(Cc1ccc(O)c(O)c1)C(=O)O`, the activation in test [1] (at 61 µM (top of the series)) is inactive: 0.0555% and inactive: -1.04% and inactive: -0.687%; in test [1] (at 78.8 µM (top of the series)), inactive: -0.711%. The Potency result in test [2] was “inactive”.
For the compound `CC(C)[N+](C)(CCOC(=O)C1c2ccccc2Oc2ccccc21)C(C)C`, the Potency entry in test [4], in test [6], in test [2] and in test [8] was “inactive” each time. Moreover, the activity change in test [5] (at 70.3 µM (top of the series)) was inactive: -2% and inactive: -4.72%. In addition, the activation in test [1] (setting [9]) was inactive: -0.694% and inactive: -0.123%. In test [7], the Potency is active: 54.5 µM and inactive.
`CC[N+](CC)(CC)CCOC(=O)C(C1CCCC1)C1CCCC1`: the Potency entry in test [4], in test [2], in test [3] and in test [8] was “inactive” each time. The activity change in test [5] (at 70.3 µM (top of the series)) was inactive: -8.49%. In addition, in test [1] (setting [9]), the activation was inactive: -0.693%. The Potency in test [7] is active: 26.6 µM.
`c1cnc2c(c1)ccc1cccnc12`: the activation in test [1] (at 61 µM (top of the series)) was inactive: -0.578%; in test [1] (at 78.8 µM (top of the series)), inactive: 0.0475%. In addition, the Potency entry in test [2] is “inactive”. Also, the Potency in test [3] was active: 0.692 µM.
Regarding `Nc1nc(-c2ccccc2)cs1`, the activity change in test [5] (at 70.3 µM (top of the series)) is inactive: 6.03%. Besides, the Potency entry in test [6], in test [2], in test [7] and in test [8] was “inactive” each time. The activation in test [1] (setting [9]) is inactive: -0.324%.
As for `S=C1NC=NC2N=CNC12` (stereo unspecified), the activation in test [1] (setting [9]) was inactive: 0.0691%. Besides, in test [2], the Potency entry was “inactive”.
For `CCCN1C=CN(C)C1`, in test [1] (setting [9]), the activation is inactive: -1.25% [at 78.8 µM] and inactive: -0.347% [at 78.8 µM].
As for `CCCCCCC[N+](CC)(CC)CCCCc1ccc(Cl)cc1`, the activation in test [1] (setting [9]) was inactive: 1.48%.
With `CN(C)C/C=C(/c1ccc(Br)cc1)c1cccnc1`, in test [1] (setting [9]), the activation was inactive: -0.807%. In test [2], the Potency entry was “inactive”.
As to `O=c1c(O)c(-c2ccc(O)c(O)c2)oc2cc(O)cc(O)c12`, the activation in test [1] (setting [9]) was inactive: -0.242% and inactive: -1.02%. Further, in test [2], the Potency result was “inactive”.
Take `Cc1onc(-c2c(Cl)cccc2Cl)c1C(=O)N[C@@H]1C(=O)N2[C@@H]1SC(C)(C)[C@@H]2C(=O)O`: the activation in test [1] (setting [9]) was inactive: -1.69%. For the same compound, the Potency result in test [2] and in test [3] was “inactive” each time.
As for `O=C(O)[C@@H]1[C@H]2C[C@H]3c4[nH]c5ccccc5c4CCN3C[C@@H]2CC[C@@H]1O`, the activation in test [1] (setting [9]) is inactive: 0.808%. Also, the Potency entry in test [2] was “inactive”.
The matching figures for `[Ca+2]`: inactive: -0.128% and “inactive”.
As for `C[N+]1(CC2COC(c3ccccc3)(C3CCCCC3)O2)CCCCC1` (stereo unspecified), the activation in test [1] (setting [9]) is inactive: -0.131%.
Still for that read-out and setting: the same measure for `CCOCC(O)COc1ccc(NC(=O)CC[S+](C)C)cc1` (stereo unspecified): inactive: 0.578%.
Take `Nc1c(CC(=O)O)cccc1C(=O)c1ccc(Br)cc1`: the activation in test [1] (setting [9]) is inactive: 0.134%. Besides, the Potency result in test [2] and in test [3] was “inactive” throughout.
For `C[C@@H]1C[C@H]2[C@@H]3C[C@H](F)C4=CC(=O)C(Cl)=C[C@]4(C)[C@@]3(F)[C@@H](O)C[C@]2(C)[C@@]1(O)C(=O)CO`, the activation in test [1] (setting [9]) was inactive: -0.818%.
For the compound `CCN1/C(=C/C=C/c2sc3ccccc3[n+]2CC)Sc2ccccc21`, the activation in test [1] (setting [9]) was inactive: 2.11% [at 28.5 µM]. Moreover, the Potency in test [2] is active: 5.17 µM.
Consider `C[N+]1(C)[C@@H]2CC(OC(=O)[C@H](CO)c3ccccc3)C[C@H]1[C@@H]1O[C@@H]12` (stereo partly specified), for which the activation in test [1] (setting [9]) is inactive: 0.142%. Also, the Potency entry in test [2] and in test [3] was “inactive” in each case.
With `CCN1C=CN(C)C1C` (stereo unspecified), the Potency result in test [4], in test [6], in test [2], in test [7], in test [3] and in test [8] was “inactive” each time. Besides, in test [5] (at 95 µM (top of the series)), the activity change is inactive: 0.481%. Further, in test [1] (setting [9]), the activation was inactive: -0.893% [at 78.8 µM].
For `COc1cccc(OC)c1C(=O)N[C@@H]1C(=O)N2[C@@H]1SC(C)(C)[C@@H]2C(=O)O`, the activation in test [1] (setting [9]) is inactive: -0.969%.
Same read-out and setting: the same measure for `NC(=O)NC1N=C([O][Al])NC1=O` (stereo unspecified): inactive: -1.45%.
For `CC[N+](C)(CC)CCOC(=O)C1c2ccccc2Oc2ccccc21`, the activity change in test [5] (at 70.3 µM (top of the series)) is inactive: -1.45%. The activation in test [1] (setting [9]) is inactive: 1.07%. Moreover, the Potency result in test [2], in test [7] and in test [8] was “inactive” throughout.
In the case of `CO/N=C(\C(=O)N[C@@H]1C(=O)N2C(C(=O)O)=C(CSc3nc(=O)c(O)nn3C)CS[C@H]12)c1csc(N)n1`, the activation in test [1] (setting [9]) was inactive: -0.422%. In addition, in test [2], the Potency result was “inactive”.
For the compound `O=S(=O)(O)c1cccc2c(S(=O)(=O)O)cccc12`, in test [1] (setting [9]), the activation is inactive: 1.11%. The Potency entry in test [2] and in test [3] was “inactive” in each case.
